# Measured affinities in a library of Ab-14 light chain variants

The measurements come from Engelhart et al. 2022 (doi:10.1038/s41597-022-01779-4) through the FLAb antibody collection.

The target is the same throughout: PDVDLGDISGINAS, from the HR2 region of SARS-CoV-2 spike.

Ab-14 is the parent antibody, in scFv form: VH, then the linker GGGGSGGGGSGGGGS, then VL. The heavy chain is unchanged in all variants.
VH: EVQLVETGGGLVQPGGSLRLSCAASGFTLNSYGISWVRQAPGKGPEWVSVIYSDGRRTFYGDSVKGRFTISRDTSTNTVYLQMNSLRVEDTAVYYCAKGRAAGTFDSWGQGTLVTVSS
VL: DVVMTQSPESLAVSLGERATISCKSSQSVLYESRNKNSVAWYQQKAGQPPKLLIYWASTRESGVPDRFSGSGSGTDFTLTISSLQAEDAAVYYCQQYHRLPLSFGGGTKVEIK

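The parent was found by panning a naive human phage display library on the peptide. AAYL50 was designed without a model: most single CDR substitutions and a random sample of double and triple ones. In AlphaSeq, yeast of one mating type display the scFv and yeast of the other type display the target. The frequency of each diploid, read from paired DNA barcodes, reflects how well the two displayed proteins bind. A regression on co-assayed BCL2-family reference pairs converts the normalised counts of each replicate to an apparent Kd. The assay was run in three technical replicates.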

Positions count from residue 1 of the parent VL; E32V puts V in place of E. Affinities are written as log10 Kd with Kd in nM; a lower number is a better binder. The mean shown is taken over the replicates in which the pair was detected. An entry "n.d." has no value in the source: the pair was not observed among the diploids in that replicate. This suggests poor binding but is not conclusive.

{"changes": "E32V+N35G+A40Y", "log10 Kd (nM) by replicate": "n.d. / n.d. / n.d.", "log10 Kd (nM), mean": "n.d.", "empty controls": "3 of 9 (3.46)"}
{"changes": "Q27D+A40S+W56T", "log10 Kd (nM) by replicate": "n.d. / n.d. / n.d.", "log10 Kd (nM), mean": "n.d.", "empty controls": "3 of 9 (4.72)"}
{"changes": "S25R+Q27K+W56T", "log10 Kd (nM) by replicate": "2.36 / 2.38 / 2.27", "log10 Kd (nM), mean": "2.34", "empty controls": "1 of 9 (3.02)"}
{"changes": "R34E+N37W+R60E", "log10 Kd (nM) by replicate": "0.90 / 1.35 / 1.20", "log10 Kd (nM), mean": "1.15", "empty controls": "3 of 9 (4.29)"}
{"changes": "S26Q+E61F+Y97W", "log10 Kd (nM) by replicate": "1.50 / 2.45 / 1.73", "log10 Kd (nM), mean": "1.90", "empty controls": "0 of 9"}
{"changes": "T59N+Y97Q+L102P", "log10 Kd (nM) by replicate": "2.23 / 2.11 / 2.30", "log10 Kd (nM), mean": "2.22", "empty controls": "3 of 9 (4.49)"}
{"changes": "S28D+K36H+Y97L", "log10 Kd (nM) by replicate": "1.84 / 2.23 / 2.46", "log10 Kd (nM), mean": "2.18", "empty controls": "3 of 9 (4.40)"}
{"changes": "A57S+E61K+L102D", "log10 Kd (nM) by replicate": "n.d. / n.d. / n.d.", "log10 Kd (nM), mean": "n.d.", "empty controls": "0 of 9"}
{"changes": "W56D+Q95S+R99A", "log10 Kd (nM) by replicate": "n.d. / n.d. / n.d.", "log10 Kd (nM), mean": "n.d.", "empty controls": "0 of 9"}
{"changes": "K36S+A57I+R60D", "log10 Kd (nM) by replicate": "n.d. / n.d. / 4.14", "log10 Kd (nM), mean": "4.14", "empty controls": "1 of 9 (3.53)"}
{"changes": "N37P+Y97D+R99F", "log10 Kd (nM) by replicate": "n.d. / n.d. / n.d.", "log10 Kd (nM), mean": "n.d.", "empty controls": "1 of 9 (4.32)"}
{"changes": "V29H+E32V+N35E", "log10 Kd (nM) by replicate": "1.52 / 1.91 / 2.31", "log10 Kd (nM), mean": "1.91", "empty controls": "0 of 9"}
{"changes": "V29W+A40T+P101Q", "log10 Kd (nM) by replicate": "n.d. / n.d. / n.d.", "log10 Kd (nM), mean": "n.d.", "empty controls": "5 of 9 (4.24)"}
{"changes": "L30N+S33G+L102G", "log10 Kd (nM) by replicate": "1.74 / 2.18 / 2.13", "log10 Kd (nM), mean": "2.02", "empty controls": "5 of 9 (4.02)"}
{"changes": "S25Q+E61W+S103E", "log10 Kd (nM) by replicate": "2.41 / 2.40 / 2.64", "log10 Kd (nM), mean": "2.49", "empty controls": "5 of 9 (4.65)"}
{"changes": "V29C+Y31N+H98M", "log10 Kd (nM) by replicate": "0.24 / 0.55 / 0.44", "log10 Kd (nM), mean": "0.41", "empty controls": "1 of 9 (3.99)"}
{"changes": "S33R+V39I+R99Q", "log10 Kd (nM) by replicate": "1.25 / 1.30 / 1.41", "log10 Kd (nM), mean": "1.32", "empty controls": "5 of 9 (4.25)"}
{"changes": "R99C+P101Y+S103E", "log10 Kd (nM) by replicate": "n.d. / n.d. / n.d.", "log10 Kd (nM), mean": "n.d.", "empty controls": "1 of 9 (3.84)"}
{"changes": "S38Y+A40Y+R99Q", "log10 Kd (nM) by replicate": "n.d. / n.d. / n.d.", "log10 Kd (nM), mean": "n.d.", "empty controls": "0 of 9"}
{"changes": "V29F+R34M+R99F", "log10 Kd (nM) by replicate": "2.69 / 2.87 / n.d.", "log10 Kd (nM), mean": "2.78", "empty controls": "1 of 9 (3.93)"}
{"changes": "S25R+Q27V+Q95S", "log10 Kd (nM) by replicate": "4.19 / n.d. / 3.50", "log10 Kd (nM), mean": "3.85", "empty controls": "6 of 9 (4.44)"}
{"changes": "K24M+Y31G+V39P", "log10 Kd (nM) by replicate": "n.d. / n.d. / n.d.", "log10 Kd (nM), mean": "n.d.", "empty controls": "0 of 9"}
{"changes": "E32M+R34Q+R60T", "log10 Kd (nM) by replicate": "3.67 / 2.99 / 3.05", "log10 Kd (nM), mean": "3.24", "empty controls": "2 of 9 (5.20)"}
{"changes": "K36R+R60K+E61H", "log10 Kd (nM) by replicate": "2.92 / 2.19 / 2.81", "log10 Kd (nM), mean": "2.64", "empty controls": "1 of 9 (5.85)"}

In this assay the parent's reference entry averaged 0.65; its copy inside this library read 1.68. Background: pairings of library AAYL50 with three empty control strains gave a value in 18% of cases (median 4.19, 5th percentile 2.99). Values in that range, when seen in few replicates, are hard to tell from nonspecific mating. For each scFv, signals with the empty controls are counted beside the result, with their mean in brackets.